For one assay, the target named is human μ opiate receptor (Homo sapiens, UniProt P35372). Put plainly: μ opiate receptor binding assay with [3H]-naloxone, membrane preparation of CHO-K1 cells (WGA-SPA beads). To be noted: for MOP % Inhibition @1 μM / % inhibition (μ) [1 μM]: test concentration 1 μM.
Another assay deals with ORL1 receptor (Homo sapiens, UniProt P41146). To be noted: for ORL1 % Inhibition @ 1 μM / % inhibition (ORL1) [1 μM]: test concentration 1 μM.
[1] abbreviates: read-out: Ki (μ) mean [μm], mean.
The mark [2] stands for this setting: read-out: Ki (ORL1) mean [μm], mean.

Chains of the proteins cited; added tags and fusions are not shown. Lines headed by an entry give the natural chain unless they say otherwise; changes in a name come on top.
UniProt P35372, whole entry, looked up: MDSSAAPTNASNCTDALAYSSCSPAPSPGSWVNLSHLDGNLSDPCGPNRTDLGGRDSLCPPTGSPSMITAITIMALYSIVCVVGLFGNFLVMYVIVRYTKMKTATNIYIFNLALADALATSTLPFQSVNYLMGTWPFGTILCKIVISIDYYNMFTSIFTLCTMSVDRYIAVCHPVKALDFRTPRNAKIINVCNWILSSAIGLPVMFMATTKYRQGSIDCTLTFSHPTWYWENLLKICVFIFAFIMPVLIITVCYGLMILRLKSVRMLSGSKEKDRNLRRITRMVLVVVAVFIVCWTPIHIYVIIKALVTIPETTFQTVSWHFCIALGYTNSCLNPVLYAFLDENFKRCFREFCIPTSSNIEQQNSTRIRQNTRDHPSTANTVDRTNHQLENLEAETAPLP
UniProt P41146: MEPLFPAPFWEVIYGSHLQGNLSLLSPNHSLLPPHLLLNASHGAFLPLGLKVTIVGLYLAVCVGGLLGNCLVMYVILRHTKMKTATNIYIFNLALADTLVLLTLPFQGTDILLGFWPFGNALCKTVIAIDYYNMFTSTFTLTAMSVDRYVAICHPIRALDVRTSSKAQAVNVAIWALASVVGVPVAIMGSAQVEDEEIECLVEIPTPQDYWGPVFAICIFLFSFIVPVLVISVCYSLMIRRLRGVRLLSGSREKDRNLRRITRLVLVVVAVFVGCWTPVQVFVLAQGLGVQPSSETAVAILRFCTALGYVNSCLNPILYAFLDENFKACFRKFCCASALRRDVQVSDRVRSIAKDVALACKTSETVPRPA

Where two headings read alike, the source gives them in different places.

On to `CN(C)C(=O)CNC(=O)CN1CC2(CCC(c3ccccc3)(N(C)C)CC2)CC1=O` (centres unmarked), for which the Ki on human μ opiate receptor (read-out: MOP Ki) turned out to be 150 nM; at ORL1 receptor (read-out: ORL1 Ki), 275 nM. Moreover, the “MOP % Inhibition @1 μM” value on human μ opiate receptor was 81%. Besides, the “ORL1 % Inhibition @ 1 μM” value at ORL1 receptor stood at 52%.
Turning to `CN(C)C1(c2cccs2)CCC2(CCN(C(=O)n3ccnc3)C2)CC1` (centres unmarked), the results for the Ki at human μ opiate receptor (setting [1]) and at ORL1 receptor (setting [2]) were 19.5 nM and 47 nM, respectively. For the same compound, on human μ opiate receptor, the “% inhibition (μ) [1 μM]” value was 96.5%. In addition, the “% inhibition (ORL1) [1 μM]” value at ORL1 receptor turned out to be 81%.
Regarding `CN(C)[C@]1(c2ccccc2)CC[C@@]2(CC1)CC(=O)N(Cc1ccccc1C(=O)O)C2`, the Ki at human μ opiate receptor (read-out: MOP Ki) is 2320 nM. Also, the “MOP % Inhibition @1 μM” value at human μ opiate receptor is 27%. Further, the “ORL1 % Inhibition @ 1 μM” value on ORL1 receptor is on record as 17%.
Turning to `Cc1cnc(N2C[C@]3(CC[C@](c4ccccc4)(N(C)C)CC3)CC2=O)cn1`, the Ki turned out to be 60 nM on human μ opiate receptor (read-out: MOP Ki) and 84.5 nM on ORL1 receptor (read-out: ORL1 Ki).
Turning to `CN(C)C1(c2ccccc2)CCC2(CCN(C(=O)CC(N)=O)C2)CC1` (centres unmarked), the Ki on human μ opiate receptor (read-out: MOP Ki) was found to be 370 nM; on ORL1 receptor (read-out: ORL1 Ki), 825 nM. Moreover, on human μ opiate receptor, the “MOP % Inhibition @1 μM” value turned out to be 78%. Further, at ORL1 receptor, the “ORL1 % Inhibition @ 1 μM” value was determined as 54%.
As for `CN1CC(CCN2CC3(CCC(c4cccs4)(N(C)C)CC3)CC2=O)C1` (centres unmarked), the values for the Ki on human μ opiate receptor (setting [1]) and at ORL1 receptor (setting [2]) were 7.7 nM and 17 nM, respectively. Also, the “% inhibition (μ) [1 μM]” value at human μ opiate receptor was determined as 98.5%. Besides, the “% inhibition (ORL1) [1 μM]” value at ORL1 receptor is 90%.
On to `CN(C)C(=O)CNC(=O)C(C)(C)CCN1C[C@]2(CC[C@@](c3ccccc3)(N(C)C)CC2)CC1=O`, for which the Ki on human μ opiate receptor (read-out: MOP Ki) was found to be 162 nM; at ORL1 receptor (read-out: ORL1 Ki), 165 nM. The “MOP % Inhibition @1 μM” value on human μ opiate receptor is 85%. Moreover, on ORL1 receptor, the “ORL1 % Inhibition @ 1 μM” value was 60%.
In the case of `CN(C)C1(c2ccccc2)CCC2(CC1)CC(=O)N(CC(=O)NC1CCS(=O)(=O)CC1)C2` (centres unmarked), the “MOP % Inhibition @1 μM” value at human μ opiate receptor worked out at 56%. Moreover, the Ki at ORL1 receptor (read-out: ORL1 Ki) is 1110 nM. For the same compound, the “ORL1 % Inhibition @ 1 μM” value on ORL1 receptor turned out to be 15%.
Consider `CN(C)[C@]1(c2ccccc2)CC[C@]2(CC1)CC(=O)N(CCC(=O)NCC#N)C2`, for which the Ki was 67 nM at human μ opiate receptor (read-out: MOP Ki) and 235 nM at ORL1 receptor (read-out: ORL1 Ki). For the same compound, at human μ opiate receptor, the “MOP % Inhibition @1 μM” value worked out at 86%. For the same compound, the “ORL1 % Inhibition @ 1 μM” value at ORL1 receptor turned out to be 55%.
As to `CN(C)[C@]1(c2ccccc2)CC[C@]2(CC1)CC(=O)N(Cc1cccnc1)C2`, the Ki at human μ opiate receptor (read-out: MOP Ki) stood at 12 nM; at ORL1 receptor (read-out: ORL1 Ki), 37.5 nM. Also, the “MOP % Inhibition @1 μM” value at human μ opiate receptor worked out at 95%. On ORL1 receptor, the “ORL1 % Inhibition @ 1 μM” value is on record as 63%.
On to `COC(=O)CCN1CC2(CCC(c3ccccn3)(N(C)C)CC2)CC1=O` (centres unmarked), for which the Ki at human μ opiate receptor (read-out: MOP Ki) was found to be 210 nM; at ORL1 receptor (read-out: ORL1 Ki), 490 nM. In addition, the “MOP % Inhibition @1 μM” value at human μ opiate receptor is on record as 76%. Also, the “ORL1 % Inhibition @ 1 μM” value on ORL1 receptor was determined as 28%.
For `CN(C)[C@]1(c2ccccc2)CC[C@]2(CC1)CC(=O)N(CCC(C)(C)C(=O)NCC(N)=O)C2`, in that order: 180 nM, 215 nM, 83% and 60%.
For the compound `Cc1ccc(N2C[C@]3(CC[C@@](c4ccccc4)(N(C)C)CC3)CC2=O)nn1`, the inhibition constant Ki came to 64.5 nM on human μ opiate receptor (read-out: MOP Ki) and 58 nM on ORL1 receptor (read-out: ORL1 Ki).
`CNC(=O)C(C)(C)N(C)C(=O)CN1CC2(CCC(c3ccccc3)(N(C)C)CC2)CC1=O` (centres unmarked): the results for the Ki on human μ opiate receptor (read-out: MOP Ki) and on ORL1 receptor (read-out: ORL1 Ki) were 145 nM and 535 nM, respectively. For the same compound, at human μ opiate receptor, the “MOP % Inhibition @1 μM” value stood at 80%. Also, the “ORL1 % Inhibition @ 1 μM” value on ORL1 receptor is given as 34%.
On to `CN(C)[C@]1(c2ccccc2)CC[C@]2(CC1)CC(=O)N(CCC(=O)NCCc1ccccc1)C2`, for which the Ki at human μ opiate receptor (read-out: MOP Ki) was 4.9 nM; on ORL1 receptor (read-out: ORL1 Ki), 16.5 nM. For the same compound, the “MOP % Inhibition @1 μM” value on human μ opiate receptor is on record as 100%. In addition, the “ORL1 % Inhibition @ 1 μM” value at ORL1 receptor is listed as 91%.
As to `CN(C)[C@]1(c2ccccc2)CC[C@]2(CC1)CC(=O)N(CCCNS(=O)(=O)c1ccccn1)C2`, the inhibitory constant (Ki) was 26 nM at human μ opiate receptor (read-out: MOP Ki) and 96.5 nM at ORL1 receptor (read-out: ORL1 Ki). In addition, the “MOP % Inhibition @1 μM” value at human μ opiate receptor was found to be 99%. Further, the “ORL1 % Inhibition @ 1 μM” value on ORL1 receptor is on record as 67%.
Turning to `CN(C)[C@]1(c2ccccc2)CC[C@@]2(CC1)CC(=O)N(c1csc(-c3ccncc3)n1)C2`, the values for the Ki at human μ opiate receptor (read-out: MOP Ki) and on ORL1 receptor (read-out: ORL1 Ki) were 345 nM and 210 nM, respectively.
With `CN(C)C1(c2ccccc2)CCC2(CCN(C(=O)CC3COC(=O)OC3)C2)CC1` (centres unmarked), the values for the Ki at human μ opiate receptor (setting [1]) and at ORL1 receptor (setting [2]) were 27.5 nM and 43 nM, respectively. In addition, at human μ opiate receptor, the “% inhibition (μ) [1 μM]” value was found to be 95.5%. For the same compound, at ORL1 receptor, the “% inhibition (ORL1) [1 μM]” value was 73%.
Regarding `CN(C)C1(c2ccccc2)CCC2(CCN(C(=O)CCc3ccncc3)C2)CC1` (centres unmarked), the Ki was found to be 27.5 nM on human μ opiate receptor (read-out: MOP Ki) and 7.8 nM on ORL1 receptor (read-out: ORL1 Ki). Besides, the “MOP % Inhibition @1 μM” value at human μ opiate receptor turned out to be 98%. In addition, at ORL1 receptor, the “ORL1 % Inhibition @ 1 μM” value stood at 87%.
`Cc1ccc(C2(N(C)C)CCC3(CCN(C(=O)c4ccncc4)C3)CC2)s1` (centres unmarked): the Ki came out at 97.5 nM on human μ opiate receptor (setting [1]) and 335 nM on ORL1 receptor (setting [2]). In addition, the “% inhibition (μ) [1 μM]” value at human μ opiate receptor is recorded as 67.5%. Moreover, the “% inhibition (ORL1) [1 μM]” value on ORL1 receptor stood at 39%.
For `COCCNC(=O)CN1CC2(CCC(c3ccccc3)(N(C)C)CC2)CC1=O` (centres unmarked), the Ki is 9.7 nM at human μ opiate receptor (read-out: MOP Ki) and 17.5 nM on ORL1 receptor (read-out: ORL1 Ki). Besides, the “MOP % Inhibition @1 μM” value on human μ opiate receptor is 100%. Besides, the “ORL1 % Inhibition @ 1 μM” value on ORL1 receptor came out at 74%.
Regarding `CN(C)[C@]1(c2ccccc2)CC[C@]2(CC1)CC(=O)N(CC(=O)Nc1cnc(C(F)(F)F)nc1)C2`, the Ki amounted to 180 nM on human μ opiate receptor (read-out: MOP Ki) and 415 nM on ORL1 receptor (read-out: ORL1 Ki). Moreover, the “MOP % Inhibition @1 μM” value at human μ opiate receptor is on record as 79%. Further, the “ORL1 % Inhibition @ 1 μM” value on ORL1 receptor is on record as 44%.
Take “(8-Cyclopentyl-8-dimethylamino-3-azaspiro[4.5.]decan-3-ylphenylmethanone”: the “% inhibition (μ) [1 μM]” value on human μ opiate receptor is 96.5%. For the same compound, at ORL1 receptor, the “% inhibition (ORL1) [1 μM]” value is reported as 72%.
Consider `CN(C)[C@]1(c2ccccc2)CC[C@]2(CC1)CC(=O)N(CCCC(=O)N1CCS(=O)(=O)CC1)C2`, for which the figures for the inhibitory constant (Ki) on human μ opiate receptor (read-out: MOP Ki) and on ORL1 receptor (read-out: ORL1 Ki) were 150 nM and 530 nM, respectively. The “MOP % Inhibition @1 μM” value at human μ opiate receptor turned out to be 82%. Further, the “ORL1 % Inhibition @ 1 μM” value on ORL1 receptor was 44%.
In the same order, the values of `CN(CC(N)=O)C(=O)CN1C[C@]2(CC[C@@](c3ccccc3)(N(C)C)CC2)CC1=O` are 310 nM, 265 nM, 72% and 58%.
With `CN(C)[C@]1(c2ccccn2)CC[C@]2(CC1)CC(=O)N(CCCC(N)=O)C2`, the “MOP % Inhibition @1 μM” value on human μ opiate receptor is 31%. Further, the “ORL1 % Inhibition @ 1 μM” value at ORL1 receptor is listed as 11%.
For `CN(C)[C@]1(c2ccccc2)CC[C@]2(CC1)CC(=O)N(CCC(=O)NCc1ccccc1)C2`, the Ki is 8.4 nM on human μ opiate receptor (read-out: MOP Ki) and 93 nM on ORL1 receptor (read-out: ORL1 Ki). At human μ opiate receptor, the “MOP % Inhibition @1 μM” value came out at 99%. Also, the “ORL1 % Inhibition @ 1 μM” value at ORL1 receptor is given as 78%.
Regarding `CN(C)[C@]1(c2ccccc2)CC[C@]2(CC1)CC(=O)N(CCC(C)(C)C(=O)NCc1cncnc1)C2`, the Ki on human μ opiate receptor (read-out: MOP Ki) was 23.5 nM; at ORL1 receptor (read-out: ORL1 Ki) it was 54 nM. Moreover, the “MOP % Inhibition @1 μM” value on human μ opiate receptor is on record as 96%. For the same compound, the “ORL1 % Inhibition @ 1 μM” value on ORL1 receptor is on record as 89%.
`CN(C)[C@]1(c2ccccc2)CC[C@]2(CC1)CC(=O)N(CCC(C)(C)C(=O)NC1(C#N)CC1)C2`: the Ki was found to be 30 nM on human μ opiate receptor (read-out: MOP Ki) and 225 nM on ORL1 receptor (read-out: ORL1 Ki). In addition, the “MOP % Inhibition @1 μM” value at human μ opiate receptor was found to be 97%. In addition, the “ORL1 % Inhibition @ 1 μM” value at ORL1 receptor came out at 59%.
On to `COc1cnc(N2CC3(CCC(c4ccccc4)(N(C)C)CC3)CC2=O)nc1` (centres unmarked), for which the Ki on human μ opiate receptor (read-out: MOP Ki) came to 295 nM; at ORL1 receptor (read-out: ORL1 Ki) it was 170 nM.
On to `CN(C)[C@]1(c2ccccc2)CC[C@]2(CC1)CC(=O)N(CCC(C)(C)C(=O)O)C2`, for which the Ki at human μ opiate receptor (read-out: MOP Ki) amounted to 117 nM; at ORL1 receptor (read-out: ORL1 Ki) it was 69 nM. Further, the “MOP % Inhibition @1 μM” value on human μ opiate receptor was determined as 85%. Besides, the “ORL1 % Inhibition @ 1 μM” value on ORL1 receptor is given as 79%.

The term Ki denotes the equilibrium dissociation constant of an inhibitor or competing ligand from its target.

The values are drawn from US10214520B2, “Substituted azaspiro(4.5)decane derivatives” (priority 2014, dated 2019).
